Laboratory results published in patent US20040023978A1, “Active salt forms with tyrosine kinase activity” (priority 2002, published 2004).

Tests used:
[1] = Solubility at room temperature (HPLC isocratic method); assay type: physicochemical
[2] = Stability of the crystal form (XRPD, hot-stage XRPD)
[3] = Hygroscopicity, step isotherm at 25° C.; assay type: physicochemical

pH of the resulting aqueous solution ([1]; water (text b274)): 1.8 | crystal form on heating (hot-stage XRPD) ([2]; 100° C.): retained the initial form | crystal form on heating (hot-stage XRPD) ([2]; 175° C.): changed to a different form (Form B) | initial crystal form on suspension in water ([2]; suspended in water for 3 weeks): retained | hygroscopicity [3]: slightly hygroscopic | moisture pick-up ([3]; 80%RH): about 4%
Structure (SMILES): CNC(=O)N1CCN(Cc2ccnc(Nc3ncc(C#N)s3)c2)CC1.CS(=O)(=O)O [mesylate salt (Form A), 1-({2-[(5-cyano-1,3-thiazol-2-yl)amino]pyridin-4-yl}methyl)-4-[(methylamino)carbonyl]piperazin-1-ium methanesulfonate]
Native pH in water ([1]; value after 7 days): ^2Native pH in water is 2.54 (value after 7 days).
